This is a selection; strong and weak results do not stand in their true shares. Calls of active or inactive are those of the source. Cut-off read from the data, not from the text of the source: active = activation fold above about 2; inactive = the rest.

Amino acid sequences for entries named in this document (tags omitted).
UniProt P05187, whole entry: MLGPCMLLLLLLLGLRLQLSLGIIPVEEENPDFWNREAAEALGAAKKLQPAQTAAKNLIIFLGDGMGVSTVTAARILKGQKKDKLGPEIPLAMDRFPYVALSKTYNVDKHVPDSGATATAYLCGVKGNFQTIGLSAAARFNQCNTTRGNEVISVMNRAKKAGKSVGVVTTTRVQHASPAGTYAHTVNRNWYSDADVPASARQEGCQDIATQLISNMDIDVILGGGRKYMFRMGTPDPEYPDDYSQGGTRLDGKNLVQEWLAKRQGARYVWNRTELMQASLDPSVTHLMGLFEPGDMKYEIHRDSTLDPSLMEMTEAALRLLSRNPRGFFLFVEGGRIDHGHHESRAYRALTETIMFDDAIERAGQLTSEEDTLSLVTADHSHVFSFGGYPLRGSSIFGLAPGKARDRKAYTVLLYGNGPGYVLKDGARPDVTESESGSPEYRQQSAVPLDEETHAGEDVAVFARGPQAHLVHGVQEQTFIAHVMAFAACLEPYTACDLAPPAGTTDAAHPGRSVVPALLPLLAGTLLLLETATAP

The target of this test is Alkaline phosphatase, placental type (Homo sapiens) (UniProt P05187). Description: PLAP enzyme activators, biochemical, luminescence, HTS (AID 696). Conditions: purified PLAP enzyme, luminescent substrate read-out; at 20 µM; stronger effect = higher value.
For `CP(=O)(NC(=O)Nc1ccccc1)Oc1ccccc1` (configuration not stated), the activation fold is inactive: 1.1. Consider `CP(=O)(Nc1ccccn1)Oc1ccc(Cl)cc1` (configuration not stated), for which the activation fold is inactive: 1. In the case of `CCOP(C)(=S)SCC(=O)NC(C)C(=O)O` (configuration not stated), the activation fold was inactive: 1.2.

On to `CP(=S)(Nn1cnnc1)Oc1ccccc1` (configuration not stated), for which the activation fold was inactive: 0.7.

In the case of `COc1ccc(OP(C)(=O)Nc2cccc(F)c2)cc1` (configuration not stated), the activation fold is inactive: 1.1.

As to `COc1ccccc1OP(C)(=O)Nc1ccc(C)cc1` (configuration not stated), the activation fold was inactive: 0.9.

On to `Cc1ccc(NP(C)(=O)Oc2ccccc2)c(C)c1` (configuration not stated), for which the activation fold was inactive: 1.4.

Regarding `Cc1cc(C)cc(OP(C)(=O)Nc2ccc(C)cc2C)c1` (configuration not stated), the activation fold is inactive: 1.2. Take `Cc1ccc(C)c(NP(C)(=O)Oc2ccccc2)c1` (configuration not stated): the activation fold is inactive: 1.1.

Regarding `Cc1cc(C)cc(OP(C)(=O)Nc2ccccn2)c1` (configuration not stated), the activation fold is inactive: 0.7. The figure for `COc1ccccc1OP(C)(=O)Nc1c(C)cccc1C` (configuration not stated) is inactive: 0.8.

For `Cc1nc2ccc3ccccc3c2s1.O=[N+]([O-])c1cc([N+](=O)[O-])c(O)c([N+](=O)[O-])c1`, the activation fold was inactive: 0.8. The figure for `CCOP(C)(=S)SCC(=O)NC(C)(CC)C(=O)O` (configuration not stated) is inactive: 1.1. In the case of `Cc1ccccc1NP(C)(=O)Nc1ccccc1C`, the activation fold was inactive: 0.9. As for `CN(C)CCOC(=O)C(O)(c1ccccc1)C1CCCCC1` (configuration not stated), the activation fold was inactive: 1.

Take `COc1ccc(OP(C)(=O)Nc2cccc(Br)c2)cc1` (configuration not stated): the activation fold is inactive: 0.9. The figure for `CP(=O)(Nc1ccccc1)Oc1ccc(F)cc1` (configuration not stated) is inactive: 1.1. The figure for `CP(=O)(Nc1ccccc1F)Oc1ccccc1` (configuration not stated) is inactive: 0.8; for `COc1ccc(OP(C)(=O)Nc2ccccn2)cc1` (configuration not stated) it is inactive: 0.9. With `CN(C)CCOC(=O)C(O)(c1ccccc1)C1CCCC1` (configuration not stated), the activation fold is inactive: 1.1. The figure for `CP(=O)(Nc1ccccn1)Oc1ccccc1` (configuration not stated) is inactive: 0.8. Take `COc1ccccc1OP(C)(=O)Nc1ccc(C)cc1C` (configuration not stated): the activation fold was inactive: 1.

Consider `CCc1ccc(OP(C)(=O)O)cc1`, for which the activation fold was inactive: 1.7.

As for `Cc1c(NP(C)(=O)Oc2ccc(C(C)C)cc2)c(=O)n(-c2ccccc2)n1C` (configuration not stated), the activation fold was inactive: 1.4. The figure for `COc1ccccc1OP(C)(=O)Nc1ccc(C)c(C)c1` (configuration not stated) is inactive: 1; for `Cc1nc2ccc3ccccc3c2o1.O=[N+]([O-])c1cc([N+](=O)[O-])c(O)c([N+](=O)[O-])c1` it is inactive: 1; for `CP(=O)(OC12CC3CC(CC(C3)C1)C2)OC12CC3CC(CC(C3)C1)C2` it is inactive: 1.6.

As for `COc1ccccc1OP(C)(=O)Nc1c(C)n(C)n(-c2ccccc2)c1=O` (configuration not stated), the activation fold is inactive: 0.9. Regarding `CP(=O)(Oc1ccccc1)N1CCOC1=O` (configuration not stated), the activation fold is inactive: 0.9. The figure for `CCN(CC)CC(O)COC(=O)C(O)(c1ccccc1)C1CCCCC1` (configuration not stated) is inactive: 1.3. The figure for `CC(C)(C)c1ccc(OP(C)(=O)O)cc1` is inactive: 1.3. The figure for `CP(=O)(Nc1ccc(Cl)cc1)Oc1ccc(F)cc1` (configuration not stated) is inactive: 1.1.

(Values after PubChem BioAssay AID696 (Sanford-Burnham Center for Chemical Genomics, 2007).)
